Test results published in ChEMBL document CHEMBL6177964 (Eur J Med Chem, 2025).

Protein sequences, listed by entry. Tags and fused reporters are not part of them.
UniProt P12821, whole entry: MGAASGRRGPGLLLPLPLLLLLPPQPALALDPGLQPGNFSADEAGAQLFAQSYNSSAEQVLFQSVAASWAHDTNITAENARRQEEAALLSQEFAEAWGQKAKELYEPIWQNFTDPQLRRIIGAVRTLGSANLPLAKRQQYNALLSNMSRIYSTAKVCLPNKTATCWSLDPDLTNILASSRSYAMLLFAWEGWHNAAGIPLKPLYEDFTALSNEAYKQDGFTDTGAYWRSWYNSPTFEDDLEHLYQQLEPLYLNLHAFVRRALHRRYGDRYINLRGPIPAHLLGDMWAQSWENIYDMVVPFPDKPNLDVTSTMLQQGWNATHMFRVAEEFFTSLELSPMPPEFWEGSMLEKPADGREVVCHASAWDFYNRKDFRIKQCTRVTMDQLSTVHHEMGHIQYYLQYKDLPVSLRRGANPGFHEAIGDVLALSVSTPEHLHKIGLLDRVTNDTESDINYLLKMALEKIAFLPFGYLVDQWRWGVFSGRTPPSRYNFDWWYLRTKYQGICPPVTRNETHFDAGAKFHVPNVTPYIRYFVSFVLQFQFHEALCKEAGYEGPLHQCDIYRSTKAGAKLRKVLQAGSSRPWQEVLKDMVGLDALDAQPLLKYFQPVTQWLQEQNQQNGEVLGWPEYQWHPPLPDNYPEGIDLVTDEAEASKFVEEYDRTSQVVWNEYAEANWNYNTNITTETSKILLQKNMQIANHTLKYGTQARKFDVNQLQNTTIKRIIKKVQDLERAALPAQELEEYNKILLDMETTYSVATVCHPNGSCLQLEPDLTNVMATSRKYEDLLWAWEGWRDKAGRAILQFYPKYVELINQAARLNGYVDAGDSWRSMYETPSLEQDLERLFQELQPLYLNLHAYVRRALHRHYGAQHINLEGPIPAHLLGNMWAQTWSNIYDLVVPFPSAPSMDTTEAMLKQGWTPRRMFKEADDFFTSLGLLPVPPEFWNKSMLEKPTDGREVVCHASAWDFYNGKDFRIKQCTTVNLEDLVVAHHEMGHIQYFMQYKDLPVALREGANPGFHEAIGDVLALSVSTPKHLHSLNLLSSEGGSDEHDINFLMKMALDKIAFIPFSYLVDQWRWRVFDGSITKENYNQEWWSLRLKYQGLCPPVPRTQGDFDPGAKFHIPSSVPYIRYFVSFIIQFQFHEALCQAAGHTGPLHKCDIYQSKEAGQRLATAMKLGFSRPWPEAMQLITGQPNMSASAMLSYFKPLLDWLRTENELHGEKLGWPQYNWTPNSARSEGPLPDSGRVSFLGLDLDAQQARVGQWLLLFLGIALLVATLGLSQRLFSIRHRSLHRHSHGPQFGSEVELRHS

Biological target: Angiotensin-converting enzyme (Homo sapiens, UniProt P12821)
Assay: Inhibition of ACE (unknown origin)

IC50	SMILES
8 µM	CC(C)[C@H](N)C(=O)N1CCC[C@H]1C(=O)N1CCC[C@H]1C(=O)O
5 µM	CC[C@H](C)[C@H](N)C(=O)N1CCC[C@H]1C(=O)N1CCC[C@H]1C(=O)O
